Assay results reported in publication PMC12281485, “High-Throughput Screening of Potent Drug-like Molecules Targeting 17β-HSD10 for the Treatment of Alzheimer’s Disease and Cancer” (ACS Chemical Biology, 2025).

Protein sequences, listed by entry. Tags and fused reporters are not part of them.
UniProt Q99714, whole entry: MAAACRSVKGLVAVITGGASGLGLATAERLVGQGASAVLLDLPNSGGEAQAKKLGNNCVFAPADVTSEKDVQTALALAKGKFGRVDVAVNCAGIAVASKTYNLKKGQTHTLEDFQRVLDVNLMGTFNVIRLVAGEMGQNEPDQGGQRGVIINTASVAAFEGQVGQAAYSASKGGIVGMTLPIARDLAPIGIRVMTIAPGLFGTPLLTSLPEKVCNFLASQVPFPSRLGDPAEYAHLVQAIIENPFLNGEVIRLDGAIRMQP

Experiments:
[1] = tested on: HEK293 cells overexpressing 17β-HSD10; assay: LDH cytotoxicity assay; conditions: 50 μM compound, 24 h, n = 3 ± SD
[2] = tested on: HEK293 cells overexpressing 17β-HSD10; assay: Alamar Blue cell viability assay; conditions: 50 μM compound, 24 h, n = 3 ± SD
17β-HSD10 [3] = target: T1, 17β-HSD10 (Homo sapiens, UniProt Q99714); assay: (−)-CHANA fluorescence assay of cellular 17β-HSD10 activity; conditions: read-out: cellular 17β-HSD10 activity mean pEC50 (converted)
17β-HSD10 [4] = target: T1, 17β-HSD10; assay: 17β-HSD10 enzyme inhibition dose-response assay (acetoacetyl-CoA/NADH, absorbance 340 nm); format: biochemical; conditions: for mean 17β-HSD10 pIC50: Table 5
[5] = Mouse hepatocyte metabolic stability; set-up: k (elimination constant): unit not given here; conditions: mouse hepatocytes; for Heps category: metabolism category; for Cl (clearance): limits of quantitation 0.5 and 50
[6] = Mouse plasma protein binding
[7] = Table 4, 17β-HSD10 overexpressing HEK293 cells, CHANA fluorescence assay
[8] = Table 5, HEK293 17β-HSD10 cells, CHANA assay

Compound | LDH % toxicity (50 μM dose) [1] [%] | Alamar Blue % viability (50 μM dose) [2] [%] | EC50 (17β-HSD10 [3]; [7]) [nM] | mean 17β-HSD10 pIC50 (17β-HSD10 [4]) | EC50 (17β-HSD10 [3]; [8]) [nM] | T1/2 (half-life) [5] [min] | k (elimination constant) [5] | Heps category [5] | Cl (clearance) [5] [mL/min/g liver] | LipE (17β-HSD10 [4]) | mouse PPB (% free) [6] [% free]
CC(C)CN(C(=O)c1ccc(Cl)cc1)c1cccc(N(C)Cc2cnc[nH]2)c1 | 5.08 ± 0.003 | 78.96 ± 1.38 | 1220 | – | – | – | – | – | – | – | –
CC(C)CN(C(=O)c1ccccc1)c1cccc(N(C)Cc2cnc[nH]2)c1 | – | 96.19 ± 0.82 | 2960 | – | – | – | – | – | – | – | –
Cc1ccsc1C(=O)N1CCC[C@@H]1c1ccccc1-c1ccccc1 | 4.61 ± 0.03 | 81.74 ± 0.92 | 860 | – | – | – | – | – | – | – | –
Cc1ccsc1C(=O)N1CCC[C@H]1c1ccccc1-c1cccc(Cl)c1 (single isomer, unassigned) | 5.84 ± 0.03 | 80.48 ± 1.12 | 713 | 6.77 | 713 | 4.7 | 0.15 | high | >50 | – | –
O=C(c1[nH]ncc1Cl)N1CCC[C@H]1c1ccccc1-c1cccc(O)c1 (single isomer, unassigned) | 5.51 ± 0.03 | 93.20 ± 0.43 | 170 | 6.96 | 170 | – | 0.046 | high | 21.9 | 2.96 | 9.9

Read-outs that look alike come from different tables or passages of the source.
